Measurements reported in ChEMBL document CHEMBL3414471 (J Med Chem, 2015).
The source made the active and inactive calls. The calls are words filed in the database; no cut-off is given here.

By UniProt entry, the sequences of proteins in these tests, tags left out. Where a name states a change or a piece, a line headed by the entry shows the natural chain unless it says otherwise.
UniProt P41595, whole entry: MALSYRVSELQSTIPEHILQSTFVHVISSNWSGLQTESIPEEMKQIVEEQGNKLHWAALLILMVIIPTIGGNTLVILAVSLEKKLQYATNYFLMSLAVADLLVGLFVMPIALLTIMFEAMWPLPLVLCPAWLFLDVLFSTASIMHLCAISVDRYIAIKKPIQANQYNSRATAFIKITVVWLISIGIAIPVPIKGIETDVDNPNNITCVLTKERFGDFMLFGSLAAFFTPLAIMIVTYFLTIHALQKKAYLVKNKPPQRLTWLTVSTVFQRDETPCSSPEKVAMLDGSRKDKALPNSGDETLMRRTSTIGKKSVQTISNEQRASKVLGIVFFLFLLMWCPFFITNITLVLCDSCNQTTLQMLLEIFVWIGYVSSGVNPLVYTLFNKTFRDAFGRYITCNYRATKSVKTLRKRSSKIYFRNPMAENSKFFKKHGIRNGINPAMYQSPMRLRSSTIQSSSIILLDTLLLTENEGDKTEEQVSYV
UniProt P28223, whole entry: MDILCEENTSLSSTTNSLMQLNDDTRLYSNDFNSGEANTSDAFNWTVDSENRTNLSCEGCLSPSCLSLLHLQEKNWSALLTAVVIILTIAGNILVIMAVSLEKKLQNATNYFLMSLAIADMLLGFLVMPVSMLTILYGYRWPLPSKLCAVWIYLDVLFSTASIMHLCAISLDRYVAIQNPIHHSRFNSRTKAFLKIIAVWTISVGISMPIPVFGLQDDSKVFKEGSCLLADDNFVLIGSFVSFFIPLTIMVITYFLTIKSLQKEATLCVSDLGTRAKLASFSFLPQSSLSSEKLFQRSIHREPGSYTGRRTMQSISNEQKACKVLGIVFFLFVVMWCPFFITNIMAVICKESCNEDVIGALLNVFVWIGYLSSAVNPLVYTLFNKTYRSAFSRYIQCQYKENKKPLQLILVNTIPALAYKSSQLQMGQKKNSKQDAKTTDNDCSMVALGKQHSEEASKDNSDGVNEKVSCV
UniProt P28335: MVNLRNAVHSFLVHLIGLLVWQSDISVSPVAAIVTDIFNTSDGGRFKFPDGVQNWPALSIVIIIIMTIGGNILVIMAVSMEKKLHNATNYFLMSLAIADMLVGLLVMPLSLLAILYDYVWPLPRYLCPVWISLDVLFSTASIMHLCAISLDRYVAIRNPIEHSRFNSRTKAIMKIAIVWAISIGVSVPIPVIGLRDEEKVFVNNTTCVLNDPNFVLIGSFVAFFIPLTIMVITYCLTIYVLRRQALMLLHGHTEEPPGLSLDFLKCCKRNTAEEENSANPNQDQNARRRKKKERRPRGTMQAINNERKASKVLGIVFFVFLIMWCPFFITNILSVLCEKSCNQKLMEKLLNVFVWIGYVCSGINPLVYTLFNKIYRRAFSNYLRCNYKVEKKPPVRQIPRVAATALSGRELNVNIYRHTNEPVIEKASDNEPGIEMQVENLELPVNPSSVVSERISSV

How the values were obtained:
[1] = target: 5-hydroxytryptamine receptor 2B (Homo sapiens, UniProt P41595); assay: Agonist activity at human 5-HT2B receptor expressed in HEK293 cells assessed as calcium flux by FLIPR assay relative to 5-HT; assay type: functional, cell-based
[2] = target: T1, 5-hydroxytryptamine receptor 2A (Homo sapiens, UniProt P28223); assay: Agonist activity at human 5-HT2A receptor expressed in HEK293 cells assessed as calcium flux at 10 uM by FLIPR assay; assay type: functional, cell-based
[3] = target: T2, 5-hydroxytryptamine receptor 2C (Homo sapiens, UniProt P28335); assay: Agonist activity at human 5-HT2C receptor expressed in HEK293 cells assessed as calcium flux by FLIPR assay relative to 5-HT; assay type: functional, cell-based
[4] = target: T2, 5-hydroxytryptamine receptor 2C; assay: Agonist activity at 5HT2C receptor (unknown origin) relative to control
[5] = target: T1, 5-hydroxytryptamine receptor 2A; assay: Agonist activity at human 5-HT2A receptor expressed in HEK293 cells assessed as calcium flux by FLIPR assay relative to 5-HT; assay type: functional, cell-based
Homo sapiens = organism: Homo sapiens; assay: Selectivity ratio of EC50 for human 5-HT2B receptor to EC50 for human 5HT2C receptor

SMILES	Emax [1] [%]	Activity [2]	Emax [3] [%]	further results
CC(C)Oc1ccc(Cl)cc1[C@@H]1C[C@H]1CN	19	inactive	37	
c1cc2c3c(c1)[C@H]1CCC[C@H]1CN3CCNC2				Emax [4]: 100%
CCCCOc1ccc(Cl)cc1[C@@H]1C[C@H]1CN		inactive		
CCCCOc1ccc(Cl)cc1[C@H]1C[C@@H]1CN		inactive		
CC(C)Oc1ccc(Cl)cc1[C@H]1C[C@@H]1CN	37		86	Emax [5]: 19%; Ratio EC50 (Homo sapiens): 11
